Nrf2 inh – Nrf2 pathway inhibition | A549 ARE-Fluc reporter, luciferase luminescence, 18-24 h | Potency, µM (series often up to 46 µM), most hits filed as inhibitors | hit rate 2.1% among 360,000; note: nearly all actives have a fitted effect of over 60% in size
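Quantitative HTS in A549 cells stably bearing an antioxidant response element-firefly luciferase construct. Inhibition of Nrf2-driven transcription was scored by luminescence after 18-24 h of compound exposure at 37 °C.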
A549 viability – A549 cytotoxicity, counter-screen for Nrf2 inhibitors; AID 504648; hit rate 0.16% among 390,000; A549 ARE-Fluc cells, CellTiter-Fluor viability, 18-24 h; Potency, µM (top dose mostly 46 µM), actives largely listed as inhibitors
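Cytotoxicity counterscreen: CellTiter-Fluor fluorescence was measured in A549 ARE_Fluc cells after 18-24 h of compound exposure in a concentration series. The subsequent BugLite luminescent read reports ARE-luciferase activity.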
miR-21 reporter – raises the signal of a miR-21 reporter | HeLa miR-21 FLuc reporter, luciferase, 48 h | Potency, µM (doses to about 38.3 µM) | 340,000 tested, under 10 active | AID 2288; active = well fitted rising curve with a large enough effect; inconclusive = small, poorly fitted or top-dose-only effect; inactive = no such curve, though single readings can be large or run the other way;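 also: miR-21 action dims this reporter so a rising signal means less miR-21 action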
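HeLa cells stably expressing CMV-driven firefly luciferase with a downstream miR-21 binding sequence, endogenously expressing miR-21, were treated with titrations (up to about 40uM final) for 48 hours at 37 degree Celsius. Luciferase luminescence was read after lysis.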
Nrf2 ARE act – Nrf2 pathway activation. AREc32 ARE-luciferase reporter (MCF7-derived line), luminescence, 24 h. Potency, µM (highest dose often 46.1 µM), most hits filed as activators. hit rate 0.31% among 410,000. AID 624171; note: nearly all actives have a fitted effect of over 65% in size
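Luciferase luminescence (Steady-Glo, 30 min at room temperature) served as the read-out of ARE activation in AREc32 cells treated with compounds for 24 hr at 37 deg C.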
Mito fusion yeast – blocks mitochondrial division or promotes mitochondrial fusion; S. cerevisiae fusion-defective mutant growth rescue, CellTiterGlo 48 h; AID 485298; Potency, µM (doses to about 46.1 µM), usual class: activators; hit rate 0.23% among 320,000; note: nearly all actives have a fitted effect of over 45% in size
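Luminescent cell viability in 1536-well qHTS format served as the measure of rescued growth in ts fusion-mutant S. cerevisiae cultured on non-fermentable YPEG for 48 hours at 37C.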
Of the large screens only hits and unclear results are named; the others gave an inactive call. A selection: hits, their analogues and other compounds. The true share with any hit is near 2.3%. Unless noted, calls come from the whole dose curve; as a rule, active = well fitted curve in the direction sought with a large enough effect; inconclusive = small, poorly fitted or top-dose-only effect, or another doubt; inactive = no such curve, though single readings can be large; an effect the other way counts as inactive or inconclusive.

COc1ccc2c(c1)c1c(c(=O)n(-c3cccc(C)c3)c(=O)n1Cc1cccc(Cl)c1)n2C	none (no result: Mito fusion yeast)
O=C1/C(=C\c2ccco2)NC(=S)N1c1ccccc1	Nrf2 inh inconclusive, Nrf2 ARE act 8.9µM
O=C(Nc1cccc(C(F)(F)F)c1)c1cc2nc(-c3ccc4c(c3)OCO4)cc(C(F)(F)F)n2n1	none (no result: Mito fusion yeast)
CCCCOC(=O)c1cccc(NC(=O)/C=C/c2ccccc2Cl)c1	Nrf2 inh 21µM, miR-21 reporter inconclusive (no result: Mito fusion yeast)
O=C(/C=C/c1ccccc1Cl)Nc1cccc(O)c1	none
O=C(NCC(c1ccc(Cl)cc1)N1CCCCC1)c1ccc(F)cc1 (stereo unspecified)	none (no result: Mito fusion yeast)
CCN1CCN(c2ncc(C(=O)Nc3ccccc3C(=O)OC)c3ccccc23)CC1	A549 viability 18µM
CCc1ccc(NC(=O)c2cnc(N3CCN(c4ccccn4)CC3)c3ccccc23)cc1	Nrf2 inh 12µM, A549 viability inconclusive
CCn1c(CN2CCCCC2)nc2cc(NC(=O)c3ccc([N+](=O)[O-])cc3)ccc21	Nrf2 inh inconclusive (no result: Mito fusion yeast)
Cc1ccc(CSCC(=O)N2CCN(c3ccccc3F)CC2)cc1	none (no result: Nrf2 inh, Mito fusion yeast)
Clc1ccccc1NN=Cc1ccccn1	Nrf2 ARE act 7.1µM (no result: Nrf2 inh, A549 viability, miR-21 reporter, Mito fusion yeast)
O=C(N/N=C/c1ccccn1)c1ccc(Cl)cc1	Nrf2 inh inconclusive, A549 viability inconclusive
O=C(N/N=C/C(Cl)=C/c1ccccc1)c1ccncc1	Nrf2 ARE act 22µM
O=C(N/N=C1\C/C(=N\NC(=O)c2ccncc2)c2ccccc21)c1ccncc1	Nrf2 inh 7.3µM, A549 viability inconclusive, Nrf2 ARE act inconclusive
O=C(N/N=C/C(Cl)=C/c1ccccc1)c1ccccn1	Nrf2 inh inconclusive
O=C(N/N=C/C(Cl)=C\c1ccccc1)c1cccs1	Nrf2 inh inconclusive, Nrf2 ARE act 11µM
Cn1nnnc1SCCCNCc1ccc(-c2ccc(F)c(Cl)c2)o1	none (no result: Mito fusion yeast)
Cc1ccc(S(=O)c2ccc([N+](=O)[O-])c3nonc23)cc1 (stereo unspecified)	Nrf2 ARE act 18µM (no result: Nrf2 inh, A549 viability, miR-21 reporter, Mito fusion yeast)
COc1ccc(OCCN2CCN(C(=O)c3ccc(OC)cc3)CC2)cc1	Nrf2 inh 10µM
COc1ccc(C(=O)C2CCN(C(=O)c3ccc(OC)cc3)CC2)cc1	Nrf2 inh 23µM
Cc1ccc(C(=O)C2CCN(C(=O)c3ccc(C)cc3)CC2)cc1	Nrf2 inh 23µM
CCCCCOc1ccc(C(=O)CCN2CCOCC2)cc1	Nrf2 inh inconclusive, Nrf2 ARE act 20µM
CC(C)Oc1ccc(C(=O)CCN2CCOCC2)cc1	none (no result: miR-21 reporter, Mito fusion yeast)
COc1ccc(NC(=O)C2CCN(S(=O)(=O)c3c(C)noc3/C=C/c3ccco3)CC2)cc1	none (no result: Mito fusion yeast)
Clc1ccc(C(Cn2ccnc2)OCc2c(Cl)cccc2Cl)c(Cl)c1 (stereo unspecified)	Mito fusion yeast 6.3µM (no result: miR-21 reporter)
OC(Cn1ccnc1)c1ccc(Cl)cc1Cl (stereo unspecified)	none
CCc1ccc(NC(=O)CSc2nc3n[nH]c(C)c3c(=N)n2-c2ccccc2C)cc1	A549 viability inconclusive (no result: Nrf2 inh, Mito fusion yeast)
Cc1c(Cl)cccc1-n1c(SCC(=O)NCc2ccccc2)nc2n[nH]c(C)c2c1=N	none (no result: Nrf2 inh, Mito fusion yeast)
Cc1ccccc1-n1c(SCC(=O)Nc2ccccc2Cl)nc2n[nH]c(C)c2c1=N	Nrf2 inh inconclusive, Mito fusion yeast 11µM
COc1ccc(OC)c(NC(=O)CSc2nc3n[nH]c(C)c3c(=N)n2-c2cccc(Cl)c2C)c1	Nrf2 inh 16µM, A549 viability inconclusive, Mito fusion yeast 6.3µM
CCc1ccccc1NC(=O)CSc1nc2n[nH]c(C)c2c(=N)n1-c1cccc(OC)c1	Nrf2 inh 18µM, A549 viability inconclusive
CCc1ccccc1-n1c(SCC(=O)Nc2ccc(C)cc2)nc2n[nH]c(C)c2c1=N	none (no result: Nrf2 inh, Mito fusion yeast)
Cc1ccc(C)c(Cn2c(SCC(=O)NCc3ccccc3)nc3ccccc32)c1	none (no result: Nrf2 inh, Mito fusion yeast)
CCCSc1nnc2n(-c3ccc(OC)cc3)c(=O)c3c4c(sc3n12)COC(C(C)C)C4 (stereo unspecified)	none (no result: Mito fusion yeast)
CCn1c(=O)cc(SCC(=O)Nc2cc(OC)c(OC)c(OC)c2)c2ccccc21	Nrf2 inh inconclusive
CCn1c(=O)cc(SCC(=O)Nc2cccc(SC)c2)c2ccccc21	Nrf2 inh 13µM
C/C(=N\NC(=O)CSCc1ccc([N+](=O)[O-])cc1)c1cccc(Br)c1	Nrf2 inh 23µM
Cc1ccsc1CN(C(=O)c1oc2ccc(F)cc2c1C)C1CCS(=O)(=O)C1 (stereo unspecified)	Nrf2 inh inconclusive (no result: Mito fusion yeast)
Cc1ccc2oc(C(=O)N(Cc3sccc3C)C3CCS(=O)(=O)C3)c(C)c2c1 (stereo unspecified)	Nrf2 inh 23µM (no result: Mito fusion yeast)
Cc1c(C(=O)NCc2ccccc2)sc2nc3n(c(=O)c12)CCCCC3	A549 viability inconclusive (no result: Mito fusion yeast)
O=C(N/N=C/c1c(Cl)nc2ccccn2c1=O)c1cccnc1	Nrf2 inh inconclusive, Nrf2 ARE act 14µM
COc1ccc(C2=Nn3c(nnc3-c3ccccc3Cl)SC2)cc1OC1CCCC1	Nrf2 inh 16µM (no result: miR-21 reporter, Mito fusion yeast)
CCc1ccc2[nH]c3nc(SCC(=O)NNC(=O)c4ccc(C(C)(C)C)cc4)nnc3c2c1	Nrf2 inh inconclusive, A549 viability 12µM
N#CC1=C(SCC(=O)NC2CC2)NC(=O)C(C#N)C12CCCCC2 (stereo unspecified)	none
N#CC1=C(SCC(=O)NC23CC4CC(CC(C4)C2)C3)NC(=O)C(C#N)C12CCCCC2 (stereo unspecified)	Nrf2 inh 15µM, A549 viability inconclusive
O=C(Cn1cc(S(=O)(=O)N2CCCC2)c(S(=O)(=O)N2CCCC2)c1)Nc1ccccc1	Nrf2 inh inconclusive (no result: Mito fusion yeast)
Cc1ccc2cc(CCNS(=O)(=O)c3ccc(Br)cc3)c(=O)[nH]c2c1C	Nrf2 inh 23µM
Cc1cc(C)c(S(=O)(=O)NCCc2cc3ccc(C)c(C)c3[nH]c2=O)c(C)c1	Nrf2 inh inconclusive
COC(=O)c1ccc(N=C2S/C(=C\c3cc(C)n(-c4cccnc4)c3C)C(=O)N2C)cc1	Nrf2 inh 26µM, A549 viability inconclusive
COCC(C)Nc1ncnc2c1cnn2-c1ccc(C)c(C)c1 (stereo unspecified)	none (no result: Nrf2 inh, Mito fusion yeast)
Cn1c(CCCOc2ccc(Cl)cc2Cl)nnc1SCC(=O)Nc1cccc(F)c1	none
CCc1cccc(C)c1NC(=O)CSc1nnc(CCCOc2ccc(Cl)cc2Cl)n1C	Nrf2 inh 16µM
CC1C(=O)N(Cc2ccccc2F)c2ccccc2N1C(=O)c1c(F)cccc1F (stereo unspecified)	Nrf2 inh inconclusive
COc1cccc(CN2C(=O)C(C)N(C(=O)c3c(F)cccc3F)c3ccccc32)c1 (stereo unspecified)	Nrf2 inh 21µM, miR-21 reporter inconclusive
CCC1(OC(=O)CN(C)C)C(=O)OCc2c1cc1n(c2=O)Cc2cc3c(N)cccc3nc2-1 (stereo unspecified)	Nrf2 inh 0.65µM, A549 viability inconclusive (no result: miR-21 reporter, Mito fusion yeast)
